The values that follow come from patent publication US20240067715A1 (CIRCLE33, published 2024).

Sequences of proteins named here, by UniProt entry; tags and fusion partners are left off. Residues count along the entry.
UniProt P01375, 77-233 limits assumed: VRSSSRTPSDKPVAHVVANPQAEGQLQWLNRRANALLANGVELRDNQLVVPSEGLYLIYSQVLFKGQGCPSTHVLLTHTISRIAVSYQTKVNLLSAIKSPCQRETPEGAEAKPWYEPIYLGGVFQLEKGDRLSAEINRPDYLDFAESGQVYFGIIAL

For this experiment, the target named is T1, recombinant human tumor necrosis factor (Cell Sciences, cat #CRT100C) (human, UniProt P01375 77-233).
T1 construct: Coated on ELISA plates; also the immunogen; also called TNF; rhTNF
Description: ELISA on rhTNF-coated plates, pancreatin digest samples. (In general: ELISA stands for enzyme-linked immunosorbent assay.)

B1: infliximab (recombinant human-mouse chimeric antibody specific for human TNF) (antibody, V domains shown)
VH: EVKLEESGGGLVQPGGSMKLSCVASGFIFSNHWMNWVRQSPEKGLEWVAEIRSKSINSATHYAESVKGRFTISRDDSKSAVYLQMTDLRTEDTGVYYCSRNYYGSTYDYWGQGTTLTVSS
VL: DILLTQSPAILSVSPGERVSFSCRASQFVGSSIHWYQQRTNGSPRLLIKYASESMSGIPSRFSGSGSGTDFTLSINTVESEDIADYYCQQSHSWPFTFGSGTNLEVKR
notes: also called Remicade
As for B1, the binding result is “binds”.
